The results in this text go back to PubChem BioAssay AID435003 (Sanford-Burnham Center for Chemical Genomics, 2010).

The list shows a part of the results, in another mix than the full data. Activity calls are given as the source filed them. No stated cut-off is given here; in the data, active means inhibition above about 50%; inactive means the rest.

A short description of this assay: inhibitors of induced NF-kB luciferase reporter, primary screen, TCR NF-kB activation inhibitor project, cell-based, luminescence, uHTS (AID 435003). To be noted: Jurkat, PMA/ionomycin-induced NF-kB luciferase reporter, at 4 µM, active compounds read high. Background: Reporter assays use an easily measured gene product as a stand-in for the process of interest.
On to `CC1=C2N=C(C=C3N=C(C(C)=C4[N-][C@@](C)([C@@H]5N=C1[C@](C)(CCC(=O)NC[C@@H](C)OP(=O)([O-])O[C@H]1[C@@H](O)[C@@H](n6cnc7cc(C)c(C)cc76)O[C@@H]1CO)[C@H]5CC(N)=O)[C@@](C)(CC(N)=O)[C@@H]4CCC(N)=O)[C@@](C)(CC(N)=O)[C@@H]3CCC(N)=O)C(C)(C)[C@@H]2CCC(N)=O.[C-]#N.[Co+3]`, for which the inhibition – broadly, the change of the read-out against control, counted positive when it falls – was inactive: -0.82%.

Take `O=[N+]([O-])c1cc([N+](=O)[O-])c(Nc2nnnn2CCO)c([N+](=O)[O-])c1`: the inhibition is inactive: -9.67%.

Consider `CCCOc1ccc(NP(C)(=O)Oc2ccc(Cl)cc2)cc1` (centres undefined), for which the inhibition is inactive: 5.68%.

Take `CP(=O)(Nc1ccc(SC(F)(F)F)cc1)Oc1ccccc1` (centres undefined): the inhibition is inactive: 2.83%.

As for `COc1ccccc1OP(C)(=O)Nc1c(C)cccc1C` (centres undefined), the inhibition is inactive: 6.13%.

On to `CN1CCCCC1COC(=O)C1(O)c2ccccc2CCc2ccccc21` (centres undefined), for which the inhibition is inactive: 8.5%.

With `COc1ccccc1OP(C)(=O)Nc1ccccc1` (centres undefined), the inhibition is inactive: 4.16%.

As for `CP(=O)(Nc1ccccc1Br)Oc1ccccc1` (centres undefined), the inhibition was inactive: 10.3%.

Regarding `CP(=S)(Nn1cnnc1)Oc1ccccc1` (centres undefined), the inhibition was inactive: 4.55%.

On to `Cc1cc(C)cc(OP(C)(=O)Nc2ccc(SC(F)(F)F)cc2)c1` (centres undefined), for which the inhibition is inactive: 9.42%.

Regarding `CP(=O)(NC(=O)Nc1ccccc1)Oc1ccccc1` (centres undefined), the inhibition is inactive: -7.67%.

As to `CCc1ccc(OP(C)(=O)N2CCN(c3ccc([N+](=O)[O-])cc3)CC2)cc1` (centres undefined), the inhibition was inactive: -0.427%.

Turning to `CP(=O)(Oc1ccccc1)OC(c1ccccc1)C(F)(F)F` (centres undefined), the inhibition is inactive: -4.91%.

As to `Cc1cccc(C)c1OP(C)(=O)Nc1ccc(SC(F)(F)F)cc1` (centres undefined), the inhibition is inactive: 3.29%.

For `CP(=O)(Nc1ccc(SC(F)(F)F)cc1)Oc1ccc(Cl)cc1` (centres undefined), the inhibition was inactive: 6.21%.

As for `CP(=O)(Nc1ccccn1)Oc1ccc(Cl)cc1` (centres undefined), the inhibition was inactive: -1.26%.

On to `CCOP(C)(=S)SCC(=O)NC(C)C(=O)O` (centres undefined), for which the inhibition is inactive: 7.93%.

As for `CCOC(=O)c1ccc(NP(C)(=O)Oc2ccc(OC)cc2)cc1` (centres undefined), the inhibition was inactive: -8.46%.

In the case of `O=[N+]([O-])c1cc([N+](=O)[O-])c(O)c([N+](=O)[O-])c1.c1ccc(Oc2ccncc2)cc1`, the inhibition is inactive: -10.2%.

For `CCN(CC)CCCOC(=O)C(O)(c1ccccc1)c1ccccc1`, the inhibition was inactive: 0.514%.

For the compound `Cc1cccc(C)c1OP(C)(N)=O` (centres undefined), the inhibition was inactive: -10.9%.

As to `CC(C)(C)c1ccc(OP(C)(=O)Nc2ccc(SC(F)(F)F)cc2)cc1` (centres undefined), the inhibition is inactive: 0.963%.

In the case of `O=[N+]([O-])c1cc([N+](=O)[O-])c(Nc2cccnc2)c([N+](=O)[O-])c1`, the inhibition was inactive: -20.1%.

In the case of `COc1ccc(OP(C)(=O)Nc2cccc(F)c2)cc1` (centres undefined), the inhibition was inactive: -5.07%.

For the compound `COc1ccccc1OP(C)(=O)Nc1cc(Cl)ccc1C` (centres undefined), the inhibition is inactive: -4.28%.

In the case of `Cc1cc(C)cc(OP(C)(N)=O)c1` (centres undefined), the inhibition is inactive: -0.672%.

Turning to `CCOC(=O)c1ccc(NP(C)(=O)Oc2ccccc2)cc1` (centres undefined), the inhibition was inactive: 12%.

In the case of `Cc1ccc(NP(C)(=O)Oc2ccccc2)c(C)c1` (centres undefined), the inhibition was inactive: 7.38%.

In the case of `COc1ccccc1OP(C)(=O)Nc1ccc(C)cc1` (centres undefined), the inhibition is inactive: -12.7%.
